Laboratory results reported in patent US20110052537A1, “NITRO-BASED EXPLOSIVE REMEDIATION” (published 2011).
Only a part of the results on these compounds is given; other tests are left out.

Assay: Absorption and distribution of [14C]TNT in sheep
Details: oral 35.5 mg; for % of [14C]TNT dose in tissues, total / % of [14C]TNT dose in tissues: adipose / % of [14C]TNT dose in tissues: bile / % of [14C]TNT dose in tissues: blood / % of [14C]TNT dose in tissues: bone / % of [14C]TNT dose in tissues: brain / % of [14C]TNT dose in tissues: eye / % of [14C]TNT dose in tissues: heart / % of [14C]TNT dose in tissues: kidney / % of [14C]TNT dose in tissues: large intestine content / % of [14C]TNT dose in tissues: large intestine tissue / % of [14C]TNT dose in tissues: liver / % of [14C]TNT dose in tissues: lung / % of [14C]TNT dose in tissues: remainder of carcass / % of [14C]TNT dose in tissues: rumen content / % of [14C]TNT dose in tissues: rumen tissue / % of [14C]TNT dose in tissues: skeletal muscle / % of [14C]TNT dose in tissues: skin / % of [14C]TNT dose in tissues: small intestine content / % of [14C]TNT dose in tissues: small intestine tissue / % of [14C]TNT dose in tissues: spleen / % of [14C]TNT dose in tissues: thyroid: at slaughter

2,4,6-trinitro-[^14C]toluene
% of [14C]TNT dose in cage wash (wether 368): 0.2%
% of [14C]TNT dose in feces T0-6 (wether 368): 0.2%
% of [14C]TNT dose in feces T6-12 (wether 368): 2.7%
% of [14C]TNT dose in feces T12-18 (wether 368): 11.4%
% of [14C]TNT dose in feces T18-24 (wether 368): 6.6%
% of [14C]TNT dose in feces T24-32 (wether 368): 11.7%
% of [14C]TNT dose in feces T32-40 (wether 368): 14.8%
% of [14C]TNT dose in feces T40-48 (wether 368): 9.4%
% of [14C]TNT dose in feces T48-60 (wether 368): 11.4%
% of [14C]TNT dose in feces T60-72 (wether 368): 5.8%
% of [14C]TNT dose in feces, total (wether 368): 74.0%
% of [14C]TNT dose in urine T0-6 (wether 368): 13.7%
% of [14C]TNT dose in urine T6-12 (wether 368): 2.6%
% of [14C]TNT dose in urine T12-18 (wether 368): 0.8%
% of [14C]TNT dose in urine T18-24 (wether 368): 0.3%
% of [14C]TNT dose in urine T24-32 (wether 368): 0.2%
% of [14C]TNT dose in urine T32-40 (wether 368): 0.2%
% of [14C]TNT dose in urine T40-48 (wether 368): 0.1%
% of [14C]TNT dose in urine T48-60 (wether 368): 0.2%
% of [14C]TNT dose in urine T60-72 (wether 368): 0.1%
% of [14C]TNT dose in urine, total (wether 368): 18.2%
total recovery (%) of [14C]TNT dose (wether 368): 99.7%
% of [14C]TNT dose in tissues, total (wether 368): 7.31%
% of [14C]TNT dose in tissues: adipose (wether 368): 0.00%
% of [14C]TNT dose in tissues: bile (wether 368): 0.00%
% of [14C]TNT dose in tissues: blood (wether 368): 0.00%
% of [14C]TNT dose in tissues: bone (wether 368): 0.00%
% of [14C]TNT dose in tissues: brain (wether 368): 0.00%
% of [14C]TNT dose in tissues: eye (wether 368): 0.01%
% of [14C]TNT dose in tissues: heart (wether 368): 0.00%
% of [14C]TNT dose in tissues: kidney (wether 368): 0.01%
% of [14C]TNT dose in tissues: large intestine content (wether 368): 3.02%
% of [14C]TNT dose in tissues: large intestine tissue (wether 368): 0.02%
% of [14C]TNT dose in tissues: liver (wether 368): 0.06%
% of [14C]TNT dose in tissues: lung (wether 368): 0.00%
% of [14C]TNT dose in tissues: remainder of carcass (wether 368): 0.03%
% of [14C]TNT dose in tissues: rumen content (wether 368): 3.84%
% of [14C]TNT dose in tissues: rumen tissue (wether 368): 0.09%
% of [14C]TNT dose in tissues: skeletal muscle (wether 368): 0.00%
% of [14C]TNT dose in tissues: skin (wether 368): 0.06%
% of [14C]TNT dose in tissues: small intestine content (wether 368): 0.15%
% of [14C]TNT dose in tissues: small intestine tissue (wether 368): 0.02%
% of [14C]TNT dose in tissues: spleen (wether 368): 0.00%
% of [14C]TNT dose in tissues: thyroid (wether 368): 0.00%
% of [14C]TNT dose in cage wash (wether 370): 0.4%
% of [14C]TNT dose in feces T0-6 (wether 370): 0.2%
% of [14C]TNT dose in feces T6-12 (wether 370): 3.3%
% of [14C]TNT dose in feces T12-18 (wether 370): 12.1%
% of [14C]TNT dose in feces T18-24 (wether 370): 10.7%
% of [14C]TNT dose in feces T24-32 (wether 370): 15.8%
% of [14C]TNT dose in feces T32-40 (wether 370): 16.3%
% of [14C]TNT dose in feces T40-48 (wether 370): 8.6%
% of [14C]TNT dose in feces T48-60 (wether 370): 8.8%
% of [14C]TNT dose in feces T60-72 (wether 370): 3.3%
% of [14C]TNT dose in feces, total (wether 370): 79.1%
% of [14C]TNT dose in urine T0-6 (wether 370): 11.5%
% of [14C]TNT dose in urine T6-12 (wether 370): 2.6%
% of [14C]TNT dose in urine T12-18 (wether 370): 0.6%
% of [14C]TNT dose in urine T18-24 (wether 370): 0.4%
% of [14C]TNT dose in urine T24-32 (wether 370): 0.2%
% of [14C]TNT dose in urine T32-40 (wether 370): 0.2%
% of [14C]TNT dose in urine T40-48 (wether 370): 0.2%
% of [14C]TNT dose in urine T48-60 (wether 370): 0.1%
% of [14C]TNT dose in urine T60-72 (wether 370): 0.1%
% of [14C]TNT dose in urine, total (wether 370): 15.9%
total recovery (%) of [14C]TNT dose (wether 370): 98.9%
% of [14C]TNT dose in tissues, total (wether 370): 3.53%
% of [14C]TNT dose in tissues: adipose (wether 370): 0.00%
% of [14C]TNT dose in tissues: bile (wether 370): 0.00%
% of [14C]TNT dose in tissues: blood (wether 370): 0.00%
% of [14C]TNT dose in tissues: bone (wether 370): 0.05%
% of [14C]TNT dose in tissues: brain (wether 370): 0.00%
% of [14C]TNT dose in tissues: eye (wether 370): 0.00%
% of [14C]TNT dose in tissues: heart (wether 370): 0.00%
% of [14C]TNT dose in tissues: kidney (wether 370): 0.01%
% of [14C]TNT dose in tissues: large intestine content (wether 370): 1.78%
% of [14C]TNT dose in tissues: large intestine tissue (wether 370): 0.01%
% of [14C]TNT dose in tissues: liver (wether 370): 0.08%
% of [14C]TNT dose in tissues: lung (wether 370): 0.01%
% of [14C]TNT dose in tissues: remainder of carcass (wether 370): 0.02%
% of [14C]TNT dose in tissues: rumen content (wether 370): 1.36%
% of [14C]TNT dose in tissues: rumen tissue (wether 370): 0.03%
% of [14C]TNT dose in tissues: skeletal muscle (wether 370): 0.03%
% of [14C]TNT dose in tissues: skin (wether 370): 0.08%
% of [14C]TNT dose in tissues: small intestine content (wether 370): 0.06%
% of [14C]TNT dose in tissues: small intestine tissue (wether 370): 0.01%
% of [14C]TNT dose in tissues: spleen (wether 370): 0.00%
% of [14C]TNT dose in tissues: thyroid (wether 370): 0.00%
